We go through one compound from ChEMBL document CHEMBL5380855, “Acetyl-Click Screening Platform Identifies Small-Molecule Inhibitors of Histone Acetyltransferase 1 (HAT1)” (J Med Chem, 2023).

Sequences of proteins named here, by UniProt entry; tags and fusion partners are left off. A change or cut given only in a name is not applied to a line headed by its entry.
UniProt Q16576, whole entry, looked up: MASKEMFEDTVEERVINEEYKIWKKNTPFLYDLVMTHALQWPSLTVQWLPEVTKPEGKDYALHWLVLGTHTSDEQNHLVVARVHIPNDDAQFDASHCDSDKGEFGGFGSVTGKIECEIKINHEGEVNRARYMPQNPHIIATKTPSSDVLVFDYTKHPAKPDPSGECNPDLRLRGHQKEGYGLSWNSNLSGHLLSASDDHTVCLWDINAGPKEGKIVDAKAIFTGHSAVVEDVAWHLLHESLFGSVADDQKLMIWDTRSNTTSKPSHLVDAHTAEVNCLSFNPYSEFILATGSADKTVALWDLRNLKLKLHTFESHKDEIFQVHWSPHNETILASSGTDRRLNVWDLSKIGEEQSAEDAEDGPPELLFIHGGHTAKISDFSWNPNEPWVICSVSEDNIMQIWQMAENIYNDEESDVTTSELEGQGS
UniProt O14929: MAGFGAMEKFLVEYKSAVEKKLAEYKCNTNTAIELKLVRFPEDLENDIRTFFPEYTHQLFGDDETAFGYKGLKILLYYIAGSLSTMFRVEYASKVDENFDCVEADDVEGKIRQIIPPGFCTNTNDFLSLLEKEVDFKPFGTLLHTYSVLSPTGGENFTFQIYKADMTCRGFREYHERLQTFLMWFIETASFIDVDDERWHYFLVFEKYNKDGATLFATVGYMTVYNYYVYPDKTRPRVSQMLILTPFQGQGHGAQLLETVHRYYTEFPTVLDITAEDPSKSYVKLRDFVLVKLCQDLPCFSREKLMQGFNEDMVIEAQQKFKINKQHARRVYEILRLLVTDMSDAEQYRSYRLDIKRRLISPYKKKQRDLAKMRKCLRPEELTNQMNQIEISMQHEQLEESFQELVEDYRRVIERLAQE

In the experiment the target is HAT1/Rbap46 (Homo sapiens) (UniProt Q16576+O14929). Kind of experiment: Inhibition of C-terminal FLAG tagged full length human HAT1/Rbap46 transfected in HEK293F cells using histone H4 peptide as substrate and 4-pentynoyl-CoA as cofactor at 1 to 100 uM preincubated for 10 mins followed by 4-pentynoyl-CoA addition and measured after 1 hr by amplex red dye based fluorescence analysis relative to control. Particulars: dose 1-100 µM, time 70.0 min. It counts as cell-based.

Structures are written as SMILES. Active and inactive are the calls of the source. The rule behind the calls is not given here.

For `Cc1cc2nc3c(=O)[nH]c(=O)nc-3n(C[C@H](O)[C@H](O)[C@H](O)COP(=O)(O)OP(=O)(O)OC[C@H]3O[C@@H](n4cnc5c(N)ncnc54)[C@H](O)[C@@H]3O)c2cc1C`, the inhibition result is “inactive”.
